This is a selection; strong and weak results do not stand in their true shares. Calls of active or inactive are those of the source.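 Rule for the calls: active = inhibition above the screen-wide mean inhibition plus 3 SD (cut at about 15% in these data); inactive = the rest.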
molecular target: Ephrin type-B receptor 4 (Homo sapiens) (UniProt P54760); experiment: blockers of EphB4 ligand binding – biochemical, TNYL-RAW peptide probe, fluorescence polarization, primary screen (AID 720); conditions: EphB4 LBD / TNYL-RAW-Alexa532 peptide, at 7 µM, hits give high values;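 note: 0% = DMSO wells and 100% = excess unlabeled TNYL-RAW peptide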

Protein sequences, listed by entry. Tags and fused reporters are not part of them.
UniProt P54760, whole entry: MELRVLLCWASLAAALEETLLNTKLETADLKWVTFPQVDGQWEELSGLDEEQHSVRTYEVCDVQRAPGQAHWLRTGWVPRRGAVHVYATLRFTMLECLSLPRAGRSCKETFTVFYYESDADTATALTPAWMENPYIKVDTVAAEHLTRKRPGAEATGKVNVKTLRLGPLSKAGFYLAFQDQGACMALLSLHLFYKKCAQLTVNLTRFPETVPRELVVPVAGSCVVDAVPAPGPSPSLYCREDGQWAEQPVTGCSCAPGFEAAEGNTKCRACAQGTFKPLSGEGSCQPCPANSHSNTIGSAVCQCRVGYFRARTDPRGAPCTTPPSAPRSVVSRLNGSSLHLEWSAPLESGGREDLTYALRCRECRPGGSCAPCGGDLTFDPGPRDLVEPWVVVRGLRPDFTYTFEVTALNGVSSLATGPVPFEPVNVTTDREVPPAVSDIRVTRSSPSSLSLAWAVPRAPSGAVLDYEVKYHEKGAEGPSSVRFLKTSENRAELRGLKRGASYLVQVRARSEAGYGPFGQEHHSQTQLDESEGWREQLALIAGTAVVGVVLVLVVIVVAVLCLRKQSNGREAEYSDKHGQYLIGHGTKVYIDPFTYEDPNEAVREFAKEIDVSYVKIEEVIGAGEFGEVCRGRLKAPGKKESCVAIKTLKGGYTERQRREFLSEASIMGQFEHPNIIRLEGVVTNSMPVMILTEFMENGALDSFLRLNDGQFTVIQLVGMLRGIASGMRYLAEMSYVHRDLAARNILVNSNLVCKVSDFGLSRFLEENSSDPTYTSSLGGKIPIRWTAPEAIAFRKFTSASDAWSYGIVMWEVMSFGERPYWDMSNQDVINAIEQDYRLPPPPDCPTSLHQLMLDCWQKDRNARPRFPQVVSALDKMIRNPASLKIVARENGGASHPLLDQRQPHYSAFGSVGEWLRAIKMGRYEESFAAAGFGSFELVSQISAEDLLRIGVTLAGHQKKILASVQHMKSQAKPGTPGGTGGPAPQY

SMILES	inhibition
CCOc1ncccc1C(=O)NCC1(N2CCOCC2)CCCCC1	inactive: -0.94%
CCC(CO)(C(=O)OC1CN2CCC1CC2)c1ccccc1 (stereo not given)	inactive: 0.85%
c1ccc(CN2CCC(Nc3ccccc3)CC2)cc1	inactive: 4.39%
N/C(=N\O)c1c(N)no[n+]1[O-]	inactive: -6.85%
CN1CCC(Nc2cccc(F)c2)CC1	inactive: -1.9%
N#CC1(Nc2ccccc2)CCN(CCc2ccccc2)CC1	inactive: -1.47%
O=C(NCC1(N2CCOCC2)CCCCC1)c1cc(=O)[nH]c2ccccc12	inactive: 5.08%
COc1ccc(NC2CCN(CCc3ccccc3)CC2)c(OC)c1	inactive: 1.29%
O=C(NCC1(N2CCOCC2)CCCCC1)c1cc2ccccc2o1	inactive: 5.64%
O=C(OC1CN2CCC1CC2)C1c2ccccc2Oc2ccccc21 (stereo not given)	inactive: -0.66%
